We go through four substances from paper PMC5748754, “Elucidating the Skin Delivery of Aglycone and Glycoside Flavonoids: How the Structures Affect Cutaneous Absorption” (Nutrients, 2017).

Series [1] can be described thus: Capacity factor (log K') by HPLC. In kind it is physicochemical. Particulars: HPLC C18, methanol/pH 2 phosphate buffer 1:1. Here is the method: The HPLC setup for the calculation of log K’ was an HPLC system (7-series, Hitachi, Tokyo, Japan) with a LiChrospher® C18 column (200 × 4.6 mm, Merck, Darmstadt, Germany). The mobile phase consisted of a mixture of methanol and pH 2 phosphate buffer solution (1:1). The flow rate and wavelength for determination were 1 mL/min (L-7110 pump) and 256 nm (L-7455 diode array detector), respectively. The retention times of flavonoids were detected, and the log K’ was computed as log [(tr − t0)/t0], where tr and t0 were the retention time of the flavonoid and the nonretained solvent peak, respectively.

A short description of series [2]: Partition coefficient (log P), n-octanol/water. It counts as physicochemical. Particulars: 37 °C, 24 h. Here is the method: Flavonoids in methanol (0.5 mg/mL) were pipetted into a tube at a volume of 1 mL. Methanol was then evaporated under vacuum. In the amount of 1 mL of each, n-Octanol and water were incorporated into the tube. After being shaken for 24 h at 37 °C, the tube was centrifugated at 10,000× g for 10 min. The flavonoid content in both phases was analyzed by HPLC. The log P was calculated as log (flavonoid content in n-octanol/flavonoid content in water).

Kaempferol: the “log K’” value in series [1] was found to be 0.65. Moreover, the “log P” value in series [2] is given as 3.71 ± 0.57.
Taken in the same sequence, the figures for Naringenin were 0.51 and 3.21 ± 0.04.
Consider Naringin, for which the “log K’” value in series [1] was 0.19. The “log P” value in series [2] was 0.15 ± 0.04.
Quercetin: the “log K’” value in series [1] turned out to be 0.51. The “log P” value in series [2] is 3.32 ± 0.09.
